Measured values taken from US5973188A (priority 1993, dated 1999).

Tested on: ADP-induced aggregation of platelets in human PRP
Conditions: oral administration to mice; mouse plasma (1 part) mixed with human PRP (3 parts); extrapolated from plasma volume IC50

SMILES: CCOC(=O)COc1ccc(C(=O)[C@H](C)NC(=O)c2ccc(C(=N)NP(=O)(OCC)OCC)cc2)cc1
- ID50 (dose administered orally that inhibits by 50% the ADP-induced ex vivo aggregation of platelets in human PRP): 3.9 mg/kg
